Amino acid sequences for entries named in this document (tags omitted).
UniProt P21917, whole entry: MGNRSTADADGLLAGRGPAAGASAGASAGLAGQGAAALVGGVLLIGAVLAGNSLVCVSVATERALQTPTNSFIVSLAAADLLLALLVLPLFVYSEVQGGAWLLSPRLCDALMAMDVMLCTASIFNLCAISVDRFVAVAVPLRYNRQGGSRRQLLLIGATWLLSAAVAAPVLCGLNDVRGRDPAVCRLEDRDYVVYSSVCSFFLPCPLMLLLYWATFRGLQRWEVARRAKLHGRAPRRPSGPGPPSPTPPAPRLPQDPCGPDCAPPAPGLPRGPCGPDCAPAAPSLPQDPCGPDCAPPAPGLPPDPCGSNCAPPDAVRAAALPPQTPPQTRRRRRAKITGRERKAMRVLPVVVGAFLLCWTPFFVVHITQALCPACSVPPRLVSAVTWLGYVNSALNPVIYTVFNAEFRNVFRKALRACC
UniProt Q60492, whole entry: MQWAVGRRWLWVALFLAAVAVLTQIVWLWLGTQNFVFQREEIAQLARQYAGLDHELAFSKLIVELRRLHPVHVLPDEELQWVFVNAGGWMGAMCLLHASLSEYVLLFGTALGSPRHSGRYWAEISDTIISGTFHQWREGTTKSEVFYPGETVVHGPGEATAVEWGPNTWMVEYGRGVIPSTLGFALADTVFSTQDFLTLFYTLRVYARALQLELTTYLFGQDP

In ChEMBL document CHEMBL1177670 (Bioorg Med Chem, 2010):

molecular target: D(4) dopamine receptor (Homo sapiens, UniProt P21917); assay: biochemical

For `OC1(c2ccccc2)CCN(Cc2cc3ccccc3s2)CC1`, the Ki was 377 nM.

molecular target: Sigma non-opioid intracellular receptor 1 (Cavia porcellus, UniProt Q60492); assay: biochemical

First: OC1(c2ccc(I)cc2)CCN(Cc2cc3ccccc3o2)CC1
Second: OC1(c2ccc(Br)cc2)CCN(Cc2cc3ccccc3o2)CC1
The Ki of the first is 1.7-fold lower: 1.41 nM for the first, 2.45 nM for the second. The first binds more tightly here.

Going from `OC1(c2ccc(Br)cc2)CCN(Cc2c[nH]c3ccc(OCCF)cc23)CC1` to `OC1(c2ccc(Br)cc2)CCN(Cc2c[nH]c3ncccc23)CC1`, the Ki falls from 227 nM to 15.1 nM (15-fold). The second binds more tightly here.

Compared with `OC1(c2ccc(I)cc2)CCN(Cc2c[nH]c3ccccc23)CC1`, `OC1(c2ccc(I)cc2)CCN(Cc2coc3ccccc23)CC1` is 3.9-fold lower in Ki: 2 nM for the first, 0.51 nM for the second. The second binds more tightly here.

Going from `COc1ccc2[nH]cc(CN3CCC(O)(c4ccccc4)CC3)c2c1` to `COc1cccc2[nH]cc(CN3CCC(O)(c4ccc(I)cc4)CC3)c12`, the Ki falls from 1530 nM to 881 nM (1.7-fold).

With `OC1(c2ccc(Br)cc2)CCN(Cc2coc3ccccc23)CC1` the Ki was 0.59 nM.
